# Binding of CDR-mutated scFvs to a peptide of the spike HR2 region

Antigen: PDVDLGDISGINAS, a 14-residue peptide of the SARS-CoV-2 spike HR2 region.

Parent: Ab-14, a human scFv built as VH, a (GGGGS)3 linker, VL. Only the CDRs of the heavy chain vary.
VH: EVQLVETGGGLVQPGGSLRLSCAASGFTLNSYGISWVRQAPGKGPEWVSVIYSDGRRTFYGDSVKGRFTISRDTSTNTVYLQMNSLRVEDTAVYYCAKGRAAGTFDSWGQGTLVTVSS
VL: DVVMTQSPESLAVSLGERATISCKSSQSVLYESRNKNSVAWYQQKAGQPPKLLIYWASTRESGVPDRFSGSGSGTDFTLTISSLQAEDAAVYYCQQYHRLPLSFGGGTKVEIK

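The starting antibody came from a phage panning campaign against this peptide. Variants in AAYL49 differ from the parent at up to three CDR positions; double and triple changes were sampled at random. Affinity was read by AlphaSeq, a pooled yeast mating assay with surface-displayed partners. Binding brings cells together so that they mate, and sequencing counts the barcode pairs among the diploids. Read counts were normalised to the haploid input and turned into Kd by a linear fit to BCL2-family pairs of known affinity, for each replicate. The assay was run in three technical replicates.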

The parent's heavy chain CDRs are GFTLNSYGIS, VIYSDGRRTFYGDSVK, GRAAGTFDS; each variant's own CDRs replace them letter for letter. This list gathers variants with a substitution at Y32 (VH, numbered from residue 1). The Kd shown is the geometric mean over detected replicates; a lower Kd is a better binder. "nd" means that the variant was in the library but no mating with the target was seen in any replicate; the authors take this as a sign of poor binding, and no number exists. Order: sorted from the lowest average up, undetected variants last. Background: pairings of library AAYL49 with three empty control strains gave a value in 15% of cases (median 11 µM, 5th percentile 680 nM). Values in that range, when seen in few replicates, are hard to tell from nonspecific mating. In this assay the parent's reference entry averaged 4.4 nM; its copy inside this library read 13 µM (one replicate of three).

* GFTLNSHGIS / VIYSDGRRTFYGDSVK / GRAAGTFDS -> 110 nM (3 of 3 replicates)
* GFTLNSCGIS / VIYSDGRRTFYGDTVK / GRAAGTFDS -> 250 nM (3 of 3 replicates)
* GFTLNSVGIS / VKYSDGGRTFYGDSVK / GRAAGTFDS -> 610 nM (1 of 3 replicates)
* GFTLNSSGIS / VIKSDGYRTFYGDSVK / GRAAGTFDS -> 690 nM (1 of 3 replicates)
* GFTLNSGGIS / VIRSDGRRTFYGDSVK / GRAAGTFDS -> 1.2 µM (1 of 3 replicates)
* GFTLNSIGIS / VIYNDGRRTFYGDSGK / GRAAGTFDS -> 2.5 µM (1 of 3 replicates)
* GFTNNSEGIS / VIYSDGRRTFFGDSVK / GRAAGTFDS -> 3.2 µM (1 of 3 replicates)
* GFTLNSTGIS / VIYSDGRRTFYGDSVK / GRAAGGHDS -> 3.5 µM (3 of 3 replicates)
* GFTLNSEGIS / VIYSSGRRTFYGDSVK / GRAAGTCDS -> 4.4 µM (1 of 3 replicates)
* GFTLNSLGIS / VIYSDGRRTFYGDSVK / GRARGTFDS -> 5.3 µM (1 of 3 replicates)
* GFTLNSQGIS / VPYSDGRRTSYGDSVK / GRAAGTFDS -> 5.5 µM (1 of 3 replicates)
* GFTLISPGIS / VIYSDGERTFYGDSVK / GRAAGTFDS -> 5.6 µM (1 of 3 replicates)
* GFTLNSEGIS / VIYSDGRRTFYGDSVK / GRAAGDFDS -> 6.2 µM (1 of 3 replicates)
* GFTLNSKGIS / VIYVDFRRTFYGDSVK / GRAAGTFDS -> 9.1 µM (1 of 3 replicates)
* GFTLNSSTIS / VIYSDGRRTFYGDSVK / GRAAGTFDA -> 11 µM (2 of 3 replicates)
* GFHLNSGGIS / VIYSDGRRTFYGDGVK / GRAAGTFDS -> 11 µM (1 of 3 replicates)
* GFTLNVGGIS / VIYSDGRRTFYGDSTK / GRAAGTFDS -> 19 µM (2 of 3 replicates)
* GFTCNSISIS / VIYSDGRRTFYGDSVK / GRAAGTFDS -> 19 µM (1 of 3 replicates)
* GFTLGSDGIS / VIYSDGRRTFYGDSVK / GRAFGTFDS -> 25 µM (1 of 3 replicates)
* GFTLNSCGIS / VIVSDGRRTFYGDSVK / GRAAGTEDS -> 25 µM (2 of 3 replicates)
* GFTLNPTGIS / VIYSDGRRTFYGDTVK / GRAAGTFDS -> 27 µM (2 of 3 replicates)
* GFTLNSWIIS / VIYSDGRRTFYGDSVK / GGAAGTFDS -> 27 µM (3 of 3 replicates)
* GFTLNCMGIS / VIYSDGRRTFYGDSVQ / GRAAGTFDS -> 33 µM (1 of 3 replicates)
* GFTLNSFGIS / VIYSDGRRTFYGDSVK / GRFAGTFQS -> 44 µM (1 of 3 replicates)
* GFTLNSNGIS / VIYSDGRRTFYGDSVK / GFAAGTFDG -> 46 µM (2 of 3 replicates)
* GFTLNSQGIS / VLYSDGRRTFYGDSKK / GRAAGTFDS -> 100 µM (1 of 3 replicates)
* GFTLNSCGIS / VIYSDSRRTFYGDSVK / GRKAGTFDS -> 200 µM (1 of 3 replicates)
* GFTLNSQGIS / VIYSDGRRTFYGDSVK / GRAARTFCS -> 560 µM (1 of 3 replicates)
* GFTLNSIGIS / VIYSDGRRFFYGDSVK / GWAAGTFDS -> nd (0 of 3 replicates)
* GFTLNSCGIS / VIYSDGRRTFYGDSVK / GWAAGHFDS -> nd (0 of 3 replicates)
* GFTFNSWGIS / VIYSDGRRTFYGDSVK / GRAFGTFDS -> nd (0 of 3 replicates)
* GFTLNSDGIS / VSYSDGFRTFYGDSVK / GRAAGTFDS -> nd (0 of 3 replicates)
* GFTLNSAGLS / VIYSDGKRTFYGDSVK / GRAAGTFDS -> nd (0 of 3 replicates)
* GFTLNSPGIS / VIYSDCRRTFYGDSVK / GRAAGAFDS -> nd (0 of 3 replicates)
* GFTLNSHGIS / VIYCDGRRTIYGDSVK / GRAAGTFDS -> nd (0 of 3 replicates)
* GFTLNDNGIS / VIYSDCRRTFYGDSVK / GRAAGTFDS -> nd (0 of 3 replicates)
* GFTLNSPGIS / VIYSDGRRTFYGDKVK / GRAAGTFDS -> nd (0 of 3 replicates)
* GFTLNSGGIS / VIYSDQRRTFYGNSVK / GRAAGTFDS -> nd (0 of 3 replicates)
* GFTLNSIGIS / VEYSDGRRTFYGDSVK / GRAAHTFDS -> nd (0 of 3 replicates)
* GFTLNKKGIS / QIYSDGRRTFYGDSVK / GRAAGTFDS -> nd (0 of 3 replicates)
* GFTLNSIGIS / VIYSDGRRTFYGDSVK / KRAAGIFDS -> nd (0 of 3 replicates)
* NFTLNSTGIS / VIYSDGKRTFYGDSVK / GRAAGTFDS -> nd (0 of 3 replicates)
* GFTLNSLGIS / VIYSDGRRTFYGDSVK / GRANGTFDS -> nd (0 of 3 replicates)
* GFTLNSEGIS / VIYSDGRRTFYGDSVK / ARAAGDFDS -> nd (0 of 3 replicates)
* GFTLNSWGIS / VIYSNGRRTFYGDNVK / GRAAGTFDS -> nd (0 of 3 replicates)
* GFTLNSQGIS / VIYSDGRRTFKGNSVK / GRAAGTFDS -> nd (0 of 3 replicates)
* GFTLNSSGIS / FIYSDGRRTFYGDSVK / GRAAGPFDS -> nd (0 of 3 replicates)
* GFTLNSFSIS / VIYSDGRRTFYGDSVK / GQAAGTFDS -> nd (0 of 3 replicates)
* GFFLNSMGIS / VIYSDGRRTFYGDSVK / GRAAGTFSS -> nd (0 of 3 replicates)
* GFTLPSVGIS / VIYSDGRRTFYGDNVK / GRAAGTFDS -> nd (0 of 3 replicates)
* GFTLNSCGIS / VIYSDGRRFFYGDSVK / GRAAGTFDS -> nd (0 of 3 replicates)

4 of these entries, quoted again:

CDR-H1	CDR-H2	CDR-H3	apparent Kd	replicates with signal
GFTLNSDGIS	VSYSDGFRTFYGDSVK	GRAAGTFDS	nd	0 of 3
GFTFNSWGIS	VIYSDGRRTFYGDSVK	GRAFGTFDS	nd	0 of 3
GFTLNSSTIS	VIYSDGRRTFYGDSVK	GRAAGTFDA	11 µM	2 of 3
GFTLNSPGIS	VIYSDGRRTFYGDKVK	GRAAGTFDS	nd	0 of 3

Values reported by Engelhart et al. 2022, doi:10.1038/s41597-022-01779-4 (FLAb copy).